# Laboratory results from paper PMC4527783 (PLoS ONE, 2015).
# Amino acid sequences for entries named in this document (tags omitted). A change or cut given only in a name is not applied to a line headed by its entry.
# UniProt P41146: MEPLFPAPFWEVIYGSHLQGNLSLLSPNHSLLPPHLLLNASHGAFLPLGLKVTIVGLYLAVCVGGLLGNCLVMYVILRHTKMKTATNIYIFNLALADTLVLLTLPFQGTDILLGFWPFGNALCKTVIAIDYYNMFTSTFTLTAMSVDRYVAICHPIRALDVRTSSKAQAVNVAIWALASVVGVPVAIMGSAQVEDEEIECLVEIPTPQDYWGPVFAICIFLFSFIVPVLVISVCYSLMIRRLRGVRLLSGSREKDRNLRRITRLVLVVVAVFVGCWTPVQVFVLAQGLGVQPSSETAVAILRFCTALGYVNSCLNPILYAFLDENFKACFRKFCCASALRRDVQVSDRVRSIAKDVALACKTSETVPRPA
# What was measured:
# [1] = target: T1, human NOP-RLuc/β-arrestin 2-RGFP (Homo sapiens, UniProt P41146); test: BRET NOP/β-arrestin 2 interaction, agonist concentration-response, whole cells
# [2] = target: T1, human NOP-RLuc/β-arrestin 2-RGFP; test: BRET NOP/β-arrestin 2 interaction, antagonist potency vs N/OFQ, whole cells
# human NOP-RLuc/Gβ1-RGFP = human NOP-RLuc/Gβ1-RGFP (Homo sapiens, UniProt P41146); test: BRET NOP/G-protein interaction, agonist concentration-response, cell membranes
structure (smiles),measurement,setting,value
CCn1c(=O)n([C@@H]2CCN(CC3CCCCCCC3)C[C@H]2CO)c2ccccc21,"pEC50 (CL95%), β-arrestin 2","[1]; whole HEK293 cells (100,000/well), DPBS with 0.5 mM MgCl2, 0.9 mM CaCl2, 5 μM coelenterazine, 5 min incubation, room temperature, at least 5 experiments in duplicate, inactive up to 10 μM",inactive
same,effect on basal BRET ratio / receptor/arrestin stimulation,[1]; whole cells,did not modify the basal BRET ratio
same,"antagonism of N/OFQ, β-arrestin 2 (in words)",[2],expected competitive inhibition
same,"pEC50 (CL95%), G protein","human NOP-RLuc/Gβ1-RGFP; HEK293 membranes (3 μg protein), DPBS, 5 μM coelenterazine, 5 min incubation, room temperature, at least 5 experiments in duplicate, inactive = no BRET stimulation up to 10 μM",inactive
same,"effect on basal BRET ratio, G protein",human NOP-RLuc/Gβ1-RGFP; membranes,did not modify the basal BRET ratio
same,"pEC50, G protein (Table 3)","human NOP-RLuc/Gβ1-RGFP; membranes, 5 min, summary Table 3, inactive up to 1 μM",inactive
